## scFv variants of Ab-95 (light chain) against a SARS-CoV-2 spike peptide

The target is the same throughout: PDVDLGDISGINAS, from the HR2 region of SARS-CoV-2 spike.

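The library (AAYL52) carries one to three amino acid substitutions per variant, with no insertions or deletions. The scFvs were displayed on barcoded MATa yeast, the peptide on MATalpha yeast. Binding brings cells together so that they mate, and sequencing counts the barcode pairs among the diploids. The ratio of observed to expected reads was calibrated, replicate by replicate, on BCL2-family standards whose Kd was known from biolayer interferometry. Each pool was mated in three replicate cultures.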

The variants keep the heavy chain, the linker and the frameworks of Ab-95 (scFv order VH, the linker GGGGSGGGGSGGGGS, VL).
VH: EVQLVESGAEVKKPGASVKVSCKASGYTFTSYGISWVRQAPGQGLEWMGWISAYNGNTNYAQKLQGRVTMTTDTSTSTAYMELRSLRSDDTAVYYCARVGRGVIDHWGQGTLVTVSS
VL: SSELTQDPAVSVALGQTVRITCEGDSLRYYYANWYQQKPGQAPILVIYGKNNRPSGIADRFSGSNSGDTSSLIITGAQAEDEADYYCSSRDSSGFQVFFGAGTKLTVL

Variants are written as CDR1, CDR2 and CDR3 of the light chain (limits as in the source). Parent: EGDSLRYYYAN, GKNNRPS, SSRDSSGFQVF. Scale: log10 of Kd in nM, estimated from mating counts; low values are strong binders. Where no diploid with the target was found in that replicate, the entry reads "ND": below detection, most likely a poor binder, though not proof of it. Parent in this assay: reference entry 2.31, copy in this library 2.25.

CDR-L1	CDR-L2	CDR-L3	replicates, log10 nM	signal with controls
EGDSLRYYYAN	GKTNRPS	SSRDSAGFVVF	3.99 / ND / ND	3/9 (3.57)
EIDSLRYYYAN	GKNHRPS	SSRDSSGFQVF	3.25 / 3.64 / ND	2/9 (4.14)
EGDSYRYYYAN	GKNNRPS	SSRDSSGKMVF	ND / 3.87 / ND	1/9 (5.42)
EFDSLRYYYWN	GKNNRPS	SSRDSSGFQVF	ND / 4.71 / ND	2/9 (3.97)
EGDSLRKYYAN	GKGNRQS	SSRDSSGFQVF	2.56 / 2.70 / 1.85	5/9 (3.46)
EPDYWRYYYAN	GKNNRPS	SSRDSSGFQVF	2.73 / 2.77 / 3.32	4/9 (3.78)
EADSLRYYYAL	MKNNRPS	SSRDSSGFQVF	ND / ND / ND	2/9 (5.09)
EGDSLRYYTAI	GKNNRPS	SSPDSSGFQVF	5.43 / ND / ND	2/9 (3.63)
EGDSLRYYYLN	GKNNHPS	SSRDSSGFQVF	ND / 3.67 / 4.42	3/9 (3.82)
EGDSLRYYYAN	GLNNRPS	SIRDSSGFQSF	3.48 / ND / ND	3/9 (4.12)
EGDSLRYYYAN	GKNNRPI	SKRDPSGFQVF	3.09 / 2.65 / 3.10	2/9 (3.33)
EGDQLRYYYAN	GKNNRPS	SYRESSGFQVF	4.68 / ND / 2.79	2/9 (4.31)
EGDSLIYYYAN	GKNSRPS	SSFDSSGFQVF	4.26 / ND / ND	1/9 (4.63)
EGDSLRYYYAN	GLNNRPS	CSRYSSGFQVF	3.27 / 4.99 / 4.06	3/9 (3.95)
EGDSLRYYYAN	GTNNRPS	SFIDSSGFQVF	ND / 4.12 / 4.25	3/9 (4.14)
EGDSLRYVYAN	GKNNRPS	SSLDSSGRQVF	2.46 / 2.28 / 2.50	2/9 (3.63)
EGDSLRYYYAN	GKNPRPA	SSRDSSGFHVF	4.37 / 3.47 / 3.44	5/9 (3.96)
EGVSLRYYLAN	GKNNRPS	MSRDSSGFQVF	2.05 / 2.00 / 1.47	0/9
EGDSLRYYYAN	GKNNRPS	SSRDSSGFDYF	2.02 / 2.42 / 2.80	1/9 (3.69)
EGDSLRYYYYN	TKNNRPS	PSRDSSGFQVF	ND / ND / ND	4/9 (3.93)
EGDSLRYYYAN	GKNNRQS	SSRDSTGFQLF	2.33 / 2.41 / 2.53	2/9 (4.04)
ELDSLRYYYAN	GRNNRPS	SSRDSSGFQAF	ND / 4.24 / ND	0/9
EGDSLRYYYAN	GQNNRNS	SSRKSSGFQVF	3.27 / ND / ND	1/9 (3.60)
EGDSLRYYCAP	GKNNRPS	SSRLSSGFQVF	4.36 / ND / ND	3/9 (3.30)
EKDSLRYYYAN	GKNNRPD	SSRDSSGIQVF	ND / ND / ND	1/9 (3.38)
EGDSLRYYYAN	GKNNRPS	WSADSSGFQVF	3.08 / 2.91 / 2.09	0/9
EGDLLRYYYAN	GKNNRPS	SSRDSSGFQDF	3.38 / ND / 3.16	5/9 (4.02)
EGDSLRYYWAN	GLNNRPS	SSRDSSGFQDF	1.74 / 1.78 / 2.09	2/9 (3.58)
EGYSLRYYYFN	FKNNRPS	SSRDSSGFQVF	ND / ND / ND	1/9 (3.77)
VGDSLRYYYAN	GKNNRPS	SSRDSSGFQAC	ND / 5.73 / ND	2/9 (3.99)
EGDSLRYYYAN	GKNNRRS	SNRDSSGFQVF	ND / 3.13 / ND	2/9 (3.39)
GGPSLRYYYAN	GKNIRPS	SSRDSSGFQVF	2.22 / 2.46 / 1.52	1/9 (3.38)
EGDSLRYYYPN	GKNNRPS	SSRDRSAFQVF	2.42 / 2.97 / 2.34	4/9 (4.08)
EGDSLRYYYAN	GKANRPI	SSRKSSGFQVF	3.05 / 2.70 / 2.24	1/9 (4.51)
EGHSLSYYYAN	GKNNRPS	SSRDTSGFQVF	2.20 / 2.10 / 2.09	7/9 (4.00)
EGDSLRYYYAN	GKCNRPP	SSRDSSGPQVF	2.79 / 2.96 / 4.25	5/9 (3.82)
FGDSLRYCYAN	GKNLRPS	SSRDSSGFQVF	3.24 / 4.19 / ND	2/9 (3.94)
EGDSLRYYYAN	GKCNRPM	SSRDSQGFQVF	ND / ND / 3.79	5/9 (3.85)
EGDSLRYYYAN	GKNHRPS	SSRDSSVFQDF	4.52 / 3.34 / 3.79	3/9 (4.77)
EGMSLRYYYAN	GKNIRPS	SSRDSSGFQVE	1.72 / 2.50 / 1.63	1/9 (3.51)
EGDSQRYYYCN	GKNNRPS	SSRDPSGFQVF	3.80 / ND / ND	2/9 (4.45)
KGDSLRYYYAN	GKNNRPS	SERVSSGFQVF	2.85 / 2.38 / 3.55	3/9 (2.87)
EGDSLRYYYAN	GCNWRPS	SDRDSSGFQVF	ND / ND / ND	4/9 (4.40)

A selection of 4 entries from above:

CDR-L1,CDR-L2,CDR-L3,"replicates, log10 nM",signal with controls
EGDSLRYYYAN,GKANRPI,SSRKSSGFQVF,3.05 / 2.70 / 2.24,1/9 (4.51)
EGDQLRYYYAN,GKNNRPS,SYRESSGFQVF,4.68 / ND / 2.79,2/9 (4.31)
EADSLRYYYAL,MKNNRPS,SSRDSSGFQVF,ND / ND / ND,2/9 (5.09)
EGDSLRYYYYN,TKNNRPS,PSRDSSGFQVF,ND / ND / ND,4/9 (3.93)

As a blank, each scFv also met three strains without target: over library AAYL52, 28% of these pairings were detected, typically at 3.91 and seldom below 2.90. For each scFv, signals with the empty controls are counted beside the result, with their mean in brackets.

Reference: Engelhart et al. 2022, doi:10.1038/s41597-022-01779-4. File: FLAb, binding data.